How the values were obtained:
HeLa Kyoto [1] = experiment: thermal stability score vs G1/S (z-score of summed log2 fold changes over temperatures); higher = more thermally stable than in G1/S
HeLa Kyoto [2] = experiment: solubility in G1/S (NP-40 vs SDS abundance) (log2 ratio); higher = more soluble; details: cell cycle stage: G1/S
HeLa Kyoto [3] = experiment: solubility change mitosis vs G1/S (difference of NP-40 vs SDS log2 ratios) (log2 ratio difference); higher = more soluble in mitosis
HeLa Kyoto [4] = experiment: melting temperature (median over replicates), in situ; higher = more thermally stable
[5] = cell cycle stage: early G1 (4.5 h after nocodazole release)
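Wherever melting temperature (median over replicates), in situ is given: HeLa Kyoto cells synchronized by double thymidine or nocodazole block, proteins quantified by TMT10plex mass spectrometry, three independent biological replicates.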
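Wherever solubility change mitosis vs G1/S (difference of NP-40 vs SDS log2 ratios) is given: synchronized HeLa Kyoto cells (double thymidine block for G1/S, nocodazole release for mitosis), protein amounts in NP-40 versus SDS lysates quantified by mass spectrometry, three biological replicates.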
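Wherever solubility in G1/S (NP-40 vs SDS abundance) is given: HeLa Kyoto cells arrested at G1/S by double thymidine block, proteins quantified by TMT10plex mass spectrometry in mild NP-40 versus SDS extracts, three biological replicates.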
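Wherever thermal stability score vs G1/S (z-score of summed log2 fold changes over temperatures) is given: synchronized HeLa Kyoto cells, proteins quantified by TMT10plex mass spectrometry, three biological replicates, mitosis taken 0.5 h after nocodazole release, G1/S directly after double thymidine block.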

For “MSRSRQPPLVTGISPNEGIPWTKVTIRGENLGTGPTDLIGLTICGHNCLLTAEWMSASKIVCRVGQAKNDKGDIIVTTKSGGRGTSTVSFKLLKPEKIGILDQSAVWVDEMNYYDMRTDRNKGIPPLSLRPANPLGIEIEKSKFSQKDLEMLFHGMSADFTSENFSAAWYLIENHSNTSFEQLKMAVTNLKRQANKKSEGSLAYVKGGLSTFFEAQDALSAIHQKLEADGTEKVEGSMTQKLENVLNRASNTADTLFQEVLGRKDKADSTRNALNVLQRFKFLFNLPLNIERNIQKGDYDVVINDYEKAKSLFGKTEVQVFKKYYAEVETRIEALRELLLDKLLETPSTLHDQKRYIRYLSDLHASGDPAWQCIGAQHKWILQLMHSCKEGYVKDLKGNPGLHSPMLDLDNDTRPSVLGHLSQTASLKRGSSFQSGRDDTWRYKTPHRVAFVEKLTKLVLSQLPNFWKLWISYVNGSLFSETAEKSGQIERSKNVRQRQNDFKKMIQEVMHSLVKLTRGALLPLSIRDGEAKQYGGWEVKCELSGQWLAHAIQTVRLTHESLTALEIPNDLLQTIQDLILDLRVRCVMATLQHTAEEIKRLAEKEDWIVDNEGLTSLPCQFEQCIVCSLQSLKGVLECKPGEASVFQQPKTQEEVCQLSINIMQVFIYCLEQLSTKPDADIDTTHLSVDVSSPDLFGSIHEDFSLTSEQRLLIVLSNCCYLERHTFLNIAEHFEKHNFQGIEKITQVSMASLKELDQRLFENYIELKADPIVGSLEPGIYAGYFDWKDCLPPTGVRNYLKEALVNIIAVHAEVFTISKELVPRVLSKVIEAVSEELSRLMQCVSSFSKNGALQARLEICALRDTVAVYLTPESKSSFKQALEALPQLSSGADKKLLEELLNKFKSSMHLQLTCFQAASSTMMKT [EXOC2]”, which thermal stability score (HeLa Kyoto [1]; [5]) is on record?
The thermal stability score was 0.241.

What about the thermal stability score (HeLa Kyoto [1]; cell cycle stage: mitosis) of the same substance?
The thermal stability score was 0.641.

And the “solubility in G1/S (log2)” value (HeLa Kyoto [2])?
Its value is -0.00661.

What about the “solubility change mitosis (log2)” value (HeLa Kyoto [3]) of the same substance?
Its value is -0.156.

What about the melting temperature (HeLa Kyoto [4]; cell cycle stage: G1/S) of the same substance?
Its melting temperature is 49.7 °C.

And the melting temperature (HeLa Kyoto [4]; cell cycle stage: mitosis)?
Its melting temperature is 49.2 °C.

What does the source list for “MSSGLRAADFPRWKRHISEQLRRRDRLQRQAFEEIILQYNKLLEKSDLHSVLAQKLQAEKHDVPNRHEISPGHDGTWNDNQLQEMAQLRIKHQEELTELHKKRGELAQLVIDLNNQMQRKDREMQMNEAKIAECLQTISDLETECLDLRTKLCDLERANQTLKDEYDALQITFTALEGKLRKTTEENQELVTRWMAEKAQEANRLNAENEKDSRRRQARLQKELAEAAKEPLPVEQDDDIEVIVDETSDHTEETSPVRAISRAATKRLSQPAGGLLDSITNIFGRRSVSSFPVPQDNVDTHPGSGKEVRVPATALCVFDAHDGEVNAVQFSPGSRLLATGGMDRRVKLWEVFGEKCEFKGSLSGSNAGITSIEFDSAGSYLLAASNDFASRIWTVDDYRLRHTLTGHSGKVLSAKFLLDNARIVSGSHDRTLKLWDLRSKVCIKTVFAGSSCNDIVCTEQCVMSGHFDKKIRFWDIRSESIVREMELLGKITALDLNPERTELLSCSRDDLLKVIDLRTNAIKQTFSAPGFKCGSDWTRVVFSPDGSYVAAGSAEGSLYIWSVLTGKVEKVLSKQHSSSINAVAWSPSGSHVVSVDKGCKAVLWAQY [ATG16L1]”?
thermal stability score (HeLa Kyoto [1]; [5]): -0.0564; thermal stability score (HeLa Kyoto [1]; cell cycle stage: mitosis): -1.24; solubility in G1/S (log2) (HeLa Kyoto [2]): -0.171; solubility change mitosis (log2) (HeLa Kyoto [3]): -0.0563; melting temperature (HeLa Kyoto [4]; cell cycle stage: G1/S): 54.2 °C; melting temperature (HeLa Kyoto [4]; cell cycle stage: mitosis): 54.2 °C

Which results are given for “MSVAGLKKQFYKASQLVSEKVGGAEGTKLDDDFKEMEKKVDVTSKAVTEVLARTIEYLQPNPASRAKLTMLNTVSKIRGQVKNPGYPQSEGLLGECMIRHGKELGGESNFGDALLDAGESMKRLAEVKDSLDIEVKQNFIDPLQNLCEKDLKEIQHHLKKLEGRRLDFDYKKKRQGKIPDEELRQALEKFEESKEVAETSMHNLLETDIEQVSQLSALVDAQLDYHRQAVQILDELAEKLKRRMREASSRPKREYKPKPREPFDLGEPEQSNGGFPCTTAPKIAASSSFRSSDKPIRTPSRSMPPLDQPSCKALYDFEPENDGELGFHEGDVITLTNQIDENWYEGMLDGQSGFFPLSYVEVLVPLPQ [SH3GL1]”?
thermal stability score (HeLa Kyoto [1]; [5]): -0.823; thermal stability score (HeLa Kyoto [1]; cell cycle stage: mitosis): 0.873; solubility in G1/S (log2) (HeLa Kyoto [2]): 0.788; solubility change mitosis (log2) (HeLa Kyoto [3]): 0.0805; melting temperature (HeLa Kyoto [4]; cell cycle stage: G1/S): 49.2 °C; melting temperature (HeLa Kyoto [4]; cell cycle stage: mitosis): 49.7 °C

“MVDMMDLPRSRINAGMLAQFIDKPVCFVGRLEKIHPTGKMFILSDGEGKNGTIELMEPLDEEISGIVEVVGRVTAKATILCTSYVQFKEDSHPFDLGLYNEAVKIIHDFPQFYPLGIVQHD [RPA3]” was tested. Which thermal stability score (HeLa Kyoto [1]; [5]) did it give?
The thermal stability score was -0.641.

And the thermal stability score (HeLa Kyoto [1]; cell cycle stage: mitosis)?
Its thermal stability score is -0.0893.

And the “solubility in G1/S (log2)” value (HeLa Kyoto [2])?
The value was 0.244.

And the “solubility change mitosis (log2)” value (HeLa Kyoto [3])?
Its value is 0.0766.

And the melting temperature (HeLa Kyoto [4]; cell cycle stage: G1/S)?
The melting temperature was 52.7 °C.

What about the melting temperature (HeLa Kyoto [4]; cell cycle stage: mitosis) of the same substance?
Its melting temperature is 51.8 °C.

How did the thermal stability score (HeLa Kyoto [1]; [5]) turn out when “MVHAEAFSRPLSRNEVVGLIFRLTIFGAVTYFTIKWMVDAIDPTRKQKVEAQKQAEKLMKQIGVKNVKLSEYEMSIAAHLVDPLNMHVTWSDIAGLDDVITDLKDTVILPIKKKHLFENSRLLQPPKGVLLYGPPGCGKTLIAKATAKEAGCRFINLQPSTLTDKWYGESQKLAAAVFSLAIKLQPSIIFIDEIDSFLRNRSSSDHEATAMMKAQFMSLWDGLDTDHSCQVIVMGATNRPQDLDSAIMRRMPTRFHINQPALKQREAILKLILKNENVDRHVDLLEVAQETDGFSGSDLKEMCRDAALLCVREYVNSTSEESHDEDEIRPVQQQDLHRAIEKMKKSKDAAFQNVLTHVCLD [ATAD1]” was run?
The thermal stability score was 1.73.

And the thermal stability score (HeLa Kyoto [1]; cell cycle stage: mitosis)?
Its thermal stability score is 1.74.

And the “solubility in G1/S (log2)” value (HeLa Kyoto [2])?
Its value is 0.251.

What about the “solubility change mitosis (log2)” value (HeLa Kyoto [3]) of the same substance?
The value was -0.0787.

What about the melting temperature (HeLa Kyoto [4]; cell cycle stage: G1/S) of the same substance?
The melting temperature was 50.5 °C.

And the melting temperature (HeLa Kyoto [4]; cell cycle stage: mitosis)?
The melting temperature was 49.7 °C.

How did the thermal stability score (HeLa Kyoto [1]; [5]) turn out when “MVSKRRLSKSEDKESLTEDASKTRKQPLSKKTKKSHIANEVEENDSIFVKLLKISGIILKTGESQNQLAVDQIAFQKKLFQTLRRHPSYPKIIEEFVSGLESYIEDEDSFRNCLLSCERLQDEEASMGASYSKSLIKLLLGIDILQPAIIKTLFEKLPEYFFENKNSDEINIPRLIVSQLKWLDRVVDGKDLTTKIMQLISIAPENLQHDIITSLPEILGDSQHADVGKELSDLLIENTSLTVPILDVLSSLRLDPNFLLKVRQLVMDKLSSIRLEDLPVIIKFILHSVTAMDTLEVISELREKLDLQHCVLPSRLQASQVKLKSKGRASSSGNQESSGQSCIILLFDVIKSAIRYEKTISEAWIKAIENTASVSEHKVFDLVMLFIIYSTNTQTKKYIDRVLRNKIRSGCIQEQLLQSTFSVHYLVLKDMCSSILSLAQSLLHSLDQSIISFGSLLYKYAFKFFDTYCQQEVVGALVTHICSGNEAEVDTALDVLLELVVLNPSAMMMNAVFVKGILDYLDNISPQQIRKLFYVLSTLAFSKQNEASSHIQDDMHLVIRKQLSSTVFKYKLIGIIGAVTMAGIMAADRSESPSLTQERANLSDEQCTQVTSLLQLVHSCSEQSPQASALYYDEFANLIQHEKLDPKALEWVGHTICNDFQDAFVVDSCVVPEGDFPFPVKALYGLEEYDTQDGIAINLLPLLFSQDFAKDGGPVTSQESGQKLVSPLCLAPYFRLLRLCVERQHNGNLEEIDGLLDCPIFLTDLEPGEKLESMSAKERSFMCSLIFLTLNWFREIVNAFCQETSPEMKGKVLTRLKHIVELQIILEKYLAVTPDYVPPLGNFDVETLDITPHTVTAISAKIRKKGKIERKQKTDGSKTSSSDTLSEEKNSECDPTPSHRGQLNKEFTGKEEKTSLLLHNSHAFFRELDIEVFSILHCGLVTKFILDTEMHTEATEVVQLGPPELLFLLEDLSQKLESMLTPPIARRVPFLKNKGSRNIGFSHLQQRSAQEIVHCVFQLLTPMCNHLENIHNYFQCLAAENHGVVDGPGVKVQEYHIMSSCYQRLLQIFHGLFAWSGFSQPENQNLLYSALHVLSSRLKQGEHSQPLEELLSQSVHYLQNFHQSIPSFQCALYLIRLLMVILEKSTASAQNKEKIASLARQFLCRVWPSGDKEKSNISNDQLHALLCIYLEHTESILKAIEEIAGVGVPELINSPKDASSSTFPTLTRHTFVVFFRVMMAELEKTVKKIEPGTAADSQQIHEEKLLYWNMAVRDFSILINLIKVFDSHPVLHVCLKYGRLFVEAFLKQCMPLLDFSFRKHREDVLSLLETFQLDTRLLHHLCGHSKIHQDTRLTQHVPLLKKTLELLVCRVKAMLTLNNCREAFWLGNLKNRDLQGEEIKSQNSQESTADESEDDMSSQASKSKATEDGEEDEVSAGEKEQDSDESYDDSD [FANCD2]” was run?
The thermal stability score was -3.56.

What about the thermal stability score (HeLa Kyoto [1]; cell cycle stage: mitosis) of the same substance?
Its thermal stability score is -0.802.

And the “solubility in G1/S (log2)” value (HeLa Kyoto [2])?
The value was -0.228.

And the “solubility change mitosis (log2)” value (HeLa Kyoto [3])?
The value was -0.122.

And the melting temperature (HeLa Kyoto [4]; cell cycle stage: G1/S)?
Its melting temperature is 49.7 °C.

And the melting temperature (HeLa Kyoto [4]; cell cycle stage: mitosis)?
The melting temperature was 49.5 °C.

For TLN1, which thermal stability score (HeLa Kyoto [1]; [5]) is on record?
The thermal stability score was 0.927.

And the thermal stability score (HeLa Kyoto [1]; cell cycle stage: mitosis)?
The thermal stability score was 2.82.

And the “solubility in G1/S (log2)” value (HeLa Kyoto [2])?
The value was -0.0178.

What about the “solubility change mitosis (log2)” value (HeLa Kyoto [3]) of the same substance?
Its value is -0.0708.

What about the melting temperature (HeLa Kyoto [4]; cell cycle stage: G1/S) of the same substance?
The melting temperature was 49.7 °C.

What about the melting temperature (HeLa Kyoto [4]; cell cycle stage: mitosis) of the same substance?
Its melting temperature is 49.8 °C.
